Legend:
[1] = tested on: MCF10CA1 human breast cancer cells; experiment: Cell proliferation assay, MCF10CA1; assay type: cell-based; conditions: IgB4 conditioned media, 10 μM AG1478 or 100 μg/ml Trastuzumab
Protocol: Cell proliferation assays: All three breast epithelial cell lines were plated at 5000 cells/well in 48 well plates in regular MCF10A/AT or MCF10CA1 media. After incubation for 3 days, 1 nM NRG in MCF10A/AT media or just MCF10A/AT media alone were applied to the cells for another 24 hours followed by washing them with culture media and then counting cell numbers using an hemocytometer on the 4th, 5th, 6th, 7th and 8th day.
(§1) IgB4, AG1478 and Trastuzumab treatments: NRG antagonist IgB4-stablely transfected HEK 293 cells were cultured to 80% confluent before Optimem I was applied to the cells. After 2 days, the Optimem I conditioned media was concentrated by Centricon at 4° C. 40 μl of IgB4 conditioned media or 10 μM of tyrosine kinase inhibitor AG1478 were combined with […] 1 nM NRG in MCF10A/AT media for 15 min at room temperature before being added to MCF10CA1 cells for 30 min treatment. For Trastuzumab experiment, the MCF10CA1 cells were pre-treated with 100 μg/ml Trastuzumab in MCF10CA1 media for 24 hours before the cells were treated with 1 nM NRG in the presence of 100 μg/ml Trastuzumab in MCF10A/AT media for 30 min. The amount of each antagonist was determined empirically based on its ability to block NRG-induced activation of L6 cells.

[2] = tested on: erbB receptor phosphorylation (p185) in MCF10CA1 cells; experiment: p185 receptor phosphorylation western blot, MCF10CA1; assay type: cell-based, human; conditions: IgB4 conditioned media
Protocol: Western blots and L6 muscle assays: P185 receptor phosphorylation of the three cell lines was measured by phosphotyrosine western blots after NRG treatment for 30 min on 3 day old cultures as described in WO 03/012045 and Li Q & Loeb J A (2001) J Biol Chem; 276:38068-75. In experiments to block NRG-induced receptor activation, 1 nM of NRG with or without blocking reagents (IgB4, 10 μM AG1478 or 100 μg/ml Trastuzumab) on 3 day old MCF10CA1 cells for 30 min at 37° C. in a 5% CO2 incubator. The media was discarded and phosphotyrosine western blots were performed as above. The membranes were stripped and reprobed with polyclonal rabbit erbB2 for the detection of overall erbB2 protein that was used for quantitation.
as §1, with “For Trastuzumab experiment, the MCF10CA1 cells were pre-treated with 100 μg/ml Trastuzumab in MCF10CA1 media for 24 hours before the cells were treated with 1 nM NRG in the presence of 100 μg/ml Trastuzumab in MCF10A/AT media for 30 min.” left out

**Q.** Which “MCF10CA1 proliferation with exogenous NRG” value ([1]; 1 nM NRG) does the source give for “Trastuzumab: humanized mAb that binds to erbB2” here?
**A.** reduced cell proliferation

**Q.** What about the “MCF10CA1 growth rate without exogenous NRG” value [1] of the same substance?
**A.** no effect on proliferation

**Q.** And the “exogenous NRG-induced p185 erbB receptor phosphorylation” value ([2]; 1 nM NRG, 30 min, AG1478 or 100 μg/ml Trastuzumab (24 h pre-treatment))?
**A.** response to exogenous NRG was reduced

**Q.** And the “basal p185 erbB receptor phosphorylation” value ([2]; no exogenous NRG, 10 μM AG1478 or 100 μg/ml Trastuzumab (24 h pre-treatment))?
**A.** not affected
